In PubChem BioAssay AID504847 (National Center for Advancing Translational Sciences (NCATS), 2011):
In all, about 400,000 compounds went through this assay and about 3,700 (0.93%) were called active. Listed are the inconclusive results; actives and inactives stand elsewhere. The call rests on the fitted dose curve; in most records, active means well fitted inhibition curve with a large enough effect; inconclusive means small, poorly fitted or top-dose-only effect, or another doubt; inactive means no such curve, though single readings can be large or run the other way.

The chains behind the UniProt entries cited, without tags or fusion partners. Where a name states a change or a piece, a line headed by the entry shows the natural chain unless it says otherwise.
UniProt P11473: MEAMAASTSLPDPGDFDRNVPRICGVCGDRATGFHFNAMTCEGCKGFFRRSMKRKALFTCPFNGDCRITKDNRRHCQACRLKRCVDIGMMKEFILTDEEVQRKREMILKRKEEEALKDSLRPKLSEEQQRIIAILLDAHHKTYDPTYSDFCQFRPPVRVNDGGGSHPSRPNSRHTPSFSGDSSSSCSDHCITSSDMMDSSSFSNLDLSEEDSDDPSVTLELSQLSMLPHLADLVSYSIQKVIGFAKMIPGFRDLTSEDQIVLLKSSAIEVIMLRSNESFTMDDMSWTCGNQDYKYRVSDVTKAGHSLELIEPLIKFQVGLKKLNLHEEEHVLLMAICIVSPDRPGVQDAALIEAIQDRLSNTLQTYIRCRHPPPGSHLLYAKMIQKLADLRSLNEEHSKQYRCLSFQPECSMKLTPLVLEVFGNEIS

What follows are molecules tested against Vitamin D3 receptor (Homo sapiens) (UniProt P11473) (assay: Inhibitors of the vitamin D receptor (VDR): qHTS). Conditions: VDR-SRC2-3 peptide fluorescence polarization, 2 h.
Potency means the concentration at half of the fitted maximal effect.

Row | Structure (SMILES) | Potency
1 | CCCC1OP(=O)(Nc2ccccc2)OCC1CC (centres undefined) | inconclusive: 89.1 µM
2 | CN(C(=O)Cc1ccc(Cl)c(Cl)c1)[C@@H]1CC[C@]2(CCCO2)C[C@H]1N1CCCC1 | inconclusive: 28.2 µM
3 | O=[N+]([O-])c1ccc(-c2cc([N+](=O)[O-])c(O)c([N+](=O)[O-])c2)cc1 | inconclusive: 79.4 µM
4 | O=[N+]([O-])c1cc(Oc2ccc([N+](=O)[O-])cc2C(F)(F)F)cc([N+](=O)[O-])c1 | inconclusive: 56.2 µM
5 | Cc1cc(SC(NC(=O)c2ccccc2)C(Cl)(Cl)Cl)nc(C(C)C)n1 (centres undefined) | inconclusive: 56.2 µM
6 | COc1ccc(C2=NCC(CBr)S2)cc1 (centres undefined) | inconclusive: 70.8 µM
7 | CCc1nc2c(n1)c1c(non1O)c1c2no[n+]1[O-] | inconclusive: 70.8 µM
8 | O=C(NC(Sc1ccncn1)C(Cl)(Cl)Cl)c1ccccc1 (centres undefined) | inconclusive: 89.1 µM
9 | Cc1ccc(N/C(=N/P(=O)(N2CCOCC2)N2CCOCC2)N2CCOCC2)cc1 | inconclusive: 2 µM
